Assay results: patent publication US8178560B2

The chains behind the UniProt entries cited, without tags or fusion partners.
UniProt Q8NER1, whole entry: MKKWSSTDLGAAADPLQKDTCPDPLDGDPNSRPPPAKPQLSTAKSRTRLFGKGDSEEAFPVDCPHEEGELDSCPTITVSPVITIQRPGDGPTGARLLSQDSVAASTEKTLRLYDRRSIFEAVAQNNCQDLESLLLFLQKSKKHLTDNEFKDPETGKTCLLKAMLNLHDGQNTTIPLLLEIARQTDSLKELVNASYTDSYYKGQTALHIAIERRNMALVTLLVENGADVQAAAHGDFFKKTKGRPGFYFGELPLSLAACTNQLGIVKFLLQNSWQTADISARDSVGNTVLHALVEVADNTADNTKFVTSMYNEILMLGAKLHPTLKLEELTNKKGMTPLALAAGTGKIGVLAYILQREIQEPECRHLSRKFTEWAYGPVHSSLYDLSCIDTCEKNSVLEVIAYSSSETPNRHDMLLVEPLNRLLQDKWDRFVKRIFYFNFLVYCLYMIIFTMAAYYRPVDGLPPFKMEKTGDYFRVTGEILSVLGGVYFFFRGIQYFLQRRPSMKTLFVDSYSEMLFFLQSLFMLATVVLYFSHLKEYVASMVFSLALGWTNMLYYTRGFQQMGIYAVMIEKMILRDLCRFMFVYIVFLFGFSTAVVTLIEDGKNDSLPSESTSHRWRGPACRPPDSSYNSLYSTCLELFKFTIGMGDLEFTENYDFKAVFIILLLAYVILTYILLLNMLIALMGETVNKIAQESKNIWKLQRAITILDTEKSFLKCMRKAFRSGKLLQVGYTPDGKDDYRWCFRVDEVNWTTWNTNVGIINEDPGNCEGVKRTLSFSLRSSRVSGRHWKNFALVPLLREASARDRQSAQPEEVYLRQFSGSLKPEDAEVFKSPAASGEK

Assays:
human VR1 [1] = biological target: T1, human VR1 (Homo sapiens, UniProt Q8NER1); test: pH-based assay of VR1 inhibition (FLIPR, Fluo-4 calcium, HEK293-EcR cells induced with PonA); details: agonist buffer giving pH 5.5, HEK293-EcR cells expressing human VR1
Method: (§1) Human VR1 Cloning: Human spinal cord RNA (commercially available from Clontech, Palo Alto, Calif.) was used. Reverse transcription was conducted on 1.0 μg total RNA using Thermoscript Reverse Transcriptase (commercially available from Invitrogen, Carlsbad, Calif.) and oligo dT primers as detailed in its product description. Reverse transcription reactions were incubated at 55° C. for 1 h, heat-inactivated at 85° C. for 5 min, and RNase H-treated at 37° C. for 20 min.
(§2) Human VR1 cDNA sequence was obtained by comparison of the human genomic sequence, prior to annotation, to the published rat sequence. Intron sequences were removed and flanking exonic sequences were joined to generate the hypothetical human cDNA. Primers flanking the coding region of human VR1 were designed as follows: forward primer, […] (SEQ ID NO:1); and reverse primer, […] (SEQ ID NO:2). […]
(§3) Generation of Inducible Cell Lines: Unless noted otherwise, cell culture reagents were purchased from Life Technologies of Rockville, Md. […] On the day of assay, cells were loaded with Fluo-4 (a calcium-sensitive dye that is commercially available from Molecular Probes, Eugene, Oreg.) and CAP-mediated calcium influx was measured using a FLIPR as described below. […]

human VR1 [2] = biological target: T1, human VR1; test: Capsaicin-based assay of VR1 inhibition (FLIPR, Fluo-4 calcium, HEK293-EcR cells induced with PonA); details: activation by capsaicin (400 nM), HEK293-EcR cells expressing human VR1
Method: as §1, §2, §3

- IC50 (human VR1 [1]): 0.735 µM
- IC50 (human VR1 [2]): 0.019 µM
Compound: CC(C)(C)c1ccc(NC(=O)N2CC=C(c3nccnc3Cl)CC2)cc1
